## Apparent affinities of Ab-14 variants for a coronavirus HR2 peptide

Binding partner: SARS-CoV-2 spike HR2 peptide, sequence PDVDLGDISGINAS.

The variants keep the heavy chain, the linker and the frameworks of Ab-14 (scFv order VH, three GGGGS repeats, VL).
VH: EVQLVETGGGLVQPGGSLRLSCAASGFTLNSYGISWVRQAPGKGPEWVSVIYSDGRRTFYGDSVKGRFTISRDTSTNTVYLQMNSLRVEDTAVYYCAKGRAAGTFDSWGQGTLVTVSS
VL: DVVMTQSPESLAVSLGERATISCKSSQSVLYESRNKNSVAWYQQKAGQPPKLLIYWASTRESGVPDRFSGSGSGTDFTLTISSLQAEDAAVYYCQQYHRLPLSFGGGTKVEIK

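The starting antibody came from a phage panning campaign against this peptide. These sequences belong to a second round, designed from the earlier measurements on random variants of the parent. Their group label is 14L_En_Gen (En: ensemble of fine-tuned language models; Gen: genetic algorithm). The assay is AlphaSeq: two haploid yeast populations carry antibody and antigen on their surface. The frequency of each diploid, read from paired DNA barcodes, reflects how well the two displayed proteins bind. Each replicate has its own calibration line, from reference interactions of the BCL2 family. There are six technical replicates.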

Variants are written as CDR1, CDR2 and CDR3 of the light chain (limits as in the source). Parent: KSSQSVLYESRNKNSVA, WASTRES, QQYHRLPLS. Values are log10 of the apparent Kd in nM; lower means stronger binding. A pair that was not seen in that replicate is written "nd"; this usually means weak binding, but a binder can also be missed. Values of this round are not directly comparable with the first-round values of the same sequences. The authors' rule: three or more of the six replicates give a measured affinity, fewer mean a poor binder. Background: pairings of all light chain designs with three empty control strains gave a value in 4% of cases (median 2.64, 5th percentile 1.59). Values in that range, when seen in few replicates, are hard to tell from nonspecific mating. The control count says in how many pairings with the empty strains this scFv gave a signal. The parent sequence was in this pool as ten entries: three were never detected, three once, and four in most replicates, with averages from 0.34 to 2.37.

With KISQMVKVGMTHGNSIA, EEATRSD, QQYHRLPLS the result was 1.07, 0.84, 0.93, 0.99, 1.06, 1.22 (controls 0 of 18).
With MVSQLMLWGMHAKNSIA, EAEHRCN, QQYDRLPLF the result was nd, nd, nd, 1.94, nd, nd (controls 1 of 18).
With HMSMITLQGMRARNSVA, QMTTREN, QQYDRLPLS the result was 0.90, 0.81, 0.64, 0.89, 0.84, 1.20 (controls 2 of 18).
With TISQVLNTLAKTGNNVA, DLAEREQ, QQYFRLPLS the result was 0.51, 0.16, -0.28, 0.45, -0.13, 0.49 (controls 1 of 18).
With MISQLMNMGTFHINSVA, QAQTRNE, QQYDRLPLT the result was 1.34, 1.40, 1.51, 2.16, 1.89, nd (controls 0 of 18).
With MISQLMNMGQFAINSVA, QASERNV, QQYDRLPLI the result was 1.85, 1.54, 1.31, 2.11, 1.97, 1.64 (controls 0 of 18).
With TISQMTSLFSQSLNNVA, EVSTREP, QQYDRLPLS the result was 0.92, 0.65, 0.75, 0.52, 0.70, 0.79 (controls 2 of 18).
With MMSSLMGYESRNIQNVA, QTSTREQ, QQYDRLPLI the result was 0.12, -0.03, -0.12, 0.21, 0.16, 0.22 (controls 0 of 18).
With KLYDMAALTMNNIRNVA, DNDTRVS, QQYHRLPLS the result was 1.39, 0.72, 0.78, 1.32, 1.77, 1.30 (controls 0 of 18).
With KLSMITGHMSTAKNNVA, EMVTREN, QQYNRLPLS the result was 0.37, 0.33, 0.41, 0.48, 0.56, 0.50 (controls 1 of 18).
With HMSMLTLQGMRHKNSVA, QMTTREN, QQYDRLPLS the result was 1.84, 3.28, 1.82, 2.22, 2.16, 1.56 (controls 0 of 18).
With MLSSVLHMLGAKKNSIA, DNQLRAD, QQYHRLPLM the result was 0.93, 0.63, 0.50, 0.80, 0.71, 0.80 (controls 0 of 18).
With IVSQLMLWGMHASNSIA, EAQTRLN, QQYDRLPLF the result was 2.90, nd, nd, nd, nd, 2.29 (controls 1 of 18).
With HISMLTLQGMRHRNSVA, QMTTREN, QQYDHLPLA the result was 1.79, 1.40, 1.62, 2.18, 2.03, 2.20 (controls 0 of 18).
With MVNGIMDHLSKQTNNVA, ETTTREE, QQYDRLPLS the result was 1.27, 1.07, 0.87, 1.47, 1.12, 0.72 (controls 1 of 18).
With TIGASLMYGSRNRSNVA, EVSERPN, QQYDRLPLM the result was nd, 3.17, nd, 1.95, 2.03, nd (controls 0 of 18).
With MLSGVLHMLGAKKNSIA, DLVMRAN, QQYHRLPLM the result was nd, nd, nd, nd, nd, nd (controls 0 of 18).
With MISQLWNMGQFAINSVA, QASLRCN, QQYDRLPLE the result was nd, 1.60, nd, 2.34, 3.78, nd (controls 0 of 18).
With KLGATMNTESTKRNNVA, DLVMREN, QQYFRLPLS the result was nd, 0.59, 1.41, nd, 1.46, nd (controls 0 of 18).
With MISQLYNFGTFAINSVA, QASLRCN, QQYDRLPLA the result was nd, nd, nd, 1.40, nd, nd (controls 0 of 18).
With KLSMITGHLSTAKNNVA, EMVTREE, QQYNRLPLA the result was 2.55, 1.77, 1.73, 0.89, 0.93, 1.24 (controls 0 of 18).
With KLRTVTGTEKVIGNNVA, EMETRER, QQYNRLPLS the result was 1.58, 0.96, 2.34, 1.14, 1.57, 2.04 (controls 0 of 18).
With KVYQGINTHYGAHNSIA, QEETRLQ, QQYAHLPLS the result was 1.69, 1.71, 1.40, 2.19, 2.01, 1.21 (controls 1 of 18).
With KVSEFMRGMMRQKDSIA, DNETRQS, QQYDHLPLS the result was 2.98, 1.12, 0.59, 0.90, 0.56, 0.51 (controls 0 of 18).
With TISGIMNSQSHSKNNVA, EMSTREK, QQYVRLPLA the result was 0.62, 0.73, 0.61, 0.57, 0.52, 1.52 (controls 0 of 18).
With MISQLYNMGQFAINSVA, QASQRNA, QQYDRLPLT the result was 1.17, 0.93, 0.73, 1.23, 0.88, 1.42 (controls 2 of 18).
With MMSQVTALGQRHRNNVA, QTSTREP, QQYDRLPLI the result was 1.13, 1.05, 0.97, 1.19, 1.15, 1.05 (controls 0 of 18).
With MISQLWNMGTFAINSVA, QATIRNS, QQYDRLPLA the result was 2.57, 2.67, 0.98, 2.21, 0.92, 1.33 (controls 0 of 18).
With HMSMLTLGGLKERNSVA, QMTTREN, QQYDRLPLS the result was 1.53, 1.63, 1.18, 1.25, 1.54, 1.51 (controls 0 of 18).
With KISNTSEMELKNRNSVA, ELVTRLN, QQYNRLPLS the result was 0.85, 1.23, 1.20, 1.13, 0.68, 1.21 (controls 3 of 18).
With SISGFMKSLAAHNNSVA, DMTNRED, QQYDRLPLS the result was 1.66, 1.41, 0.50, 1.98, 0.78, 1.66 (controls 0 of 18).
With IVSQLMLWGMKAKNSIA, EAVTRVN, QQYDRLPLF the result was 0.67, 0.40, 0.31, -0.05, 0.35, 0.92 (controls 0 of 18).
With MVNGIMDHLSKQHNNVA, ETETRNS, QQYDRLPLS the result was 1.51, 1.01, 1.74, 0.70, 1.16, 1.40 (controls 0 of 18).
With MIHEMMGLVSHKQSSIA, DNSTRED, QQYDRLPLS the result was nd, nd, nd, nd, nd, nd (controls 2 of 18).

The 5 strongest on average among those seen in every replicate, once more:

CDR-L1,CDR-L2,CDR-L3,log10 Kd (nM) by replicate,empty controls
MMSSLMGYESRNIQNVA,QTSTREQ,QQYDRLPLI,"0.12, -0.03, -0.12, 0.21, 0.16, 0.22",0/18
TISQVLNTLAKTGNNVA,DLAEREQ,QQYFRLPLS,"0.51, 0.16, -0.28, 0.45, -0.13, 0.49",1/18
IVSQLMLWGMKAKNSIA,EAVTRVN,QQYDRLPLF,"0.67, 0.40, 0.31, -0.05, 0.35, 0.92",0/18
KLSMITGHMSTAKNNVA,EMVTREN,QQYNRLPLS,"0.37, 0.33, 0.41, 0.48, 0.56, 0.50",1/18
TISQMTSLFSQSLNNVA,EVSTREP,QQYDRLPLS,"0.92, 0.65, 0.75, 0.52, 0.70, 0.79",2/18

Data: MIT Lincoln Laboratory AlphaSeq set, Li et al. 2023, doi:10.1038/s41467-023-39022-2, as distributed in FLAb.